An excerpt weighted towards active compounds, which were near 1.5% of everything screened.
Cneo AK release = Cryptococcus neoformans cell lysis inducers, primary screen, AK release luminescence, single concentration; C. neoformans lysis, adenylate kinase release luminescence, 4 h; normalised: neutral wells 0, clomiphene wells 100; lysis activity, % at 15 µM; actives 0.2% (n = 360,000); AID 651654, 2012;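 active = mean lysis activity across replicates of at least 80%, whatever share of replicates individually reach that level; inactive = mean lysis activity below 80%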
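Material: C. neoformans cells; Schedule: 4 h static compound exposure, 37 °C, read 1 h post-reagent; Measured by: adenylate kinase release luminescence; Read-out: signal increase indicating cell lysis; Controls: Clomiphene as positive lysis control.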
UUG fidelity = alters start codon recognition fidelity in yeast | S. cerevisiae UUG-firefly luciferase reporter, luminescence/redox ratio | activity score, % at 18.7 µM | 350,000 compounds, 0.13% hits | AID 602363;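 active = replicate mean at a twofold rise or more, about +100% in these data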;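 note: firefly luciferase made from a UUG start codon reports start codon fidelity; reporter light over untreated wells divided by growth signal over untreated wells; some hits fall short of that in this replicate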
Env fusion inh = inhibitors of HIV-1 Env-driven cell-cell fusion, primary screen, HeLa-JRFL effector, CEM21 target cells, luciferase. inhibition, % at 12.3 µM. actives 1.1% (n = 360,000). AID 651610, 2012;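 active = mean replicate inhibition score of at least 50 and every replicate individually at or above 50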
miR-122 sensor = miR-122 Renilla sensor signal increase in Huh7, primary screen, miR-122 inhibitor project, cell-based, single point, plate reader; Huh7 miR-122 Renilla luciferase sensor, 48 h; neutral wells = 0, positive control = 100; activation (reporter increase), % at 12.5 µM; actives 0.3% (n = 340,000); AID 602342, 2012;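 active = mean replicate activation score at least 90 and every replicate individually at or above 90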;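 also: higher luciferase means less miR-122 activity so hits act as miR-122 inhibitors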
PGC1a acetyl inh = inhibitors of PGC1a acetylation signal, primary screen, cell-based, U2OS, AlphaScreen, inhibitor mode. AID 651687, 2012. actives 0.17% (n = 350,000). AlphaScreen anti-acetyl-lysine; with virally co-expressed GCN5 acetyltransferase. inhibition, % at 15.6 µM;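 active = every replicate shows inhibition of at least 40%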
FN deposition inh = inhibitors of fibronectin matrix deposition, primary screen, AH1F cells, Alexa488-fibronectin fluorescence, plate reader; AH1F fibroblasts, overnight; inhibition, % at 12.6 µM; actives 0.086% (n = 350,000);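 active = mean inhibition across replicates of 30% or more, regardless of how many single replicates reach that level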
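Material: AH1F fibroblast monolayer depositing Alexa488-labelled fibronectin into matrix / Amount: 10000 AH1F cells per well / Signal: fluorescence 485/525 nm / Medium: DMEM, 2% serum / Compound: single dose, pinned / Incubation: 1 h cell adhesion before compound, then overnight fibronectin incubation / Reagent: Alexa488-FN, 24 nM final / Read-out: inhibition of fibronectin deposition signal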
Numbers stand for hits; n = inactive; x = no result given; [ ] = dose if it differs, or a comment.

SMILES	Cneo AK release	UUG fidelity	Env fusion inh	miR-122 sensor	PGC1a acetyl inh	FN deposition inh
CC(C)NC(=O)Nc1ccc2c(c1)CC(=O)N([C@H](C)CO)C[C@H](C)[C@H](CN(C)Cc1ccc(C(=O)Nc3ccccc3N)cc1)O2	x	x	n	114[16.7 µM]	n	x
CC(C)NC(=O)Nc1ccc2c(c1)CC(=O)N([C@H](C)CO)C[C@H](C)[C@@H](CN(C)Cc1ccc(C(=O)Nc3ccccc3N)cc1)O2	x	x	n	n	n	x
C[C@@H]1CN([C@@H](C)CO)C(=O)Cc2cc(NC(=O)Nc3cccc4ccccc34)ccc2O[C@@H]1CN(C)Cc1ccc(C(=O)Nc2ccccc2N)cc1	x	x	x	x	n	x
Cc1ccc(C2=NN(C(=O)c3ccccc3F)C(c3ccccc3F)C2)cc1 (stereo not given)	n	n	n	n	n	n
COc1ccc(NC(=O)N2CCCCN3[C@H](CO)[C@H](c4ccc(-c5ccccc5C)cc4)[C@@H]3C2)cc1	n	n	x	n	n	x
CCN(CC)c1ccc(NC(=O)CCCCCN2C(=O)c3ccccc3C2=O)cc1	x	x	n	x	x	n
CCN(CC)c1ccc(NC(=O)CCCCC(=O)Nc2ccc(N(CC)CC)cc2)cc1	n	n	61	n	x	n
O=C(NCCOc1ccccc1)C1CCC(=O)N(CCc2ccccn2)C1 (stereo not given)	n	n	n	n	n	n
CCCC(=O)Nc1ccc2c(c1)C(=O)N(C)C[C@@H](OC)[C@@H](C)CN(Cc1nccs1)[C@@H](C)CO2	n	x	58[16.7 µM]	x	n	n
CCCC(=O)Nc1ccc2c(c1)C(=O)N(C)C[C@@H](OC)[C@H](C)CN(Cc1nccs1)[C@@H](C)CO2	n	x	n	x	n	n
CO[C@H]1CN(C)C(=O)c2cc(NC(C)=O)ccc2OC[C@@H](C)N(Cc2nccs2)C[C@H]1C	n	n	70[16.7 µM]	n	n	n
CC(=O)N(/N=C1/C(=O)Nc2ccccc21)c1ccccc1	n	n	n	x	x	n
COC(=O)c1cn(NC(=O)c2cc([N+](=O)[O-])ccc2F)c(=O)c2ccccc12	x	x	57	x	x	n
Oc1ccccc1C(Nc1nccs1)c1ccc2cccnc2c1O (stereo not given)	n	n	60	n	n	n
Cc1nnc2sc(COc3ccccc3)nn2c1=O	n	n	n	n	n	n
c1ccc(OCc2nn3c(C4CCCCC4)nnc3s2)cc1	n	n	63	n	n	n
O=C(CN1CCN(S(=O)(=O)c2ccc(Cl)c(Cl)c2)CC1)N1CCCCC1	n	n	x	n	n	n
CCSc1cc(C)nc2c(-c3ccccc3)c(C)nn12	n	n	n	x	n	x
C=C(C)CSc1cc(C)nc2c(-c3ccccc3)c(C)nn12	n	n	61	x	n	n
O=S(=O)(c1ccc2[nH]ccc2c1)N1CCCCCC1	n	n	n	n	68	n
Cc1ccc(NC(=O)c2c(C(F)(F)F)nn(C)c2SCc2cccc(C(F)(F)F)c2)cc1C	n	n	87	n	x	n
Cc1ccc(NC(=O)c2c(C(F)(F)F)nn(C)c2SCc2ccc(Cl)cc2)cc1C	n	n	n	n	n	n
COc1ccc(C2/C=C\CN(C(=O)Nc3ccccc3-c3ccccc3)CC(=O)N2Cc2ccc(F)cc2)cc1 (stereo not given)	n	n	x	n	n	x
COc1ccc(-c2cc(-c3ccccc3)nc(N3CCCC3)n2)cc1OC	n	n	x	n	n	x
CSCC(O)Cn1[nH]c(=O)c2cc(Cl)c(Cl)cc2c1=O (stereo not given)	x	x	n	x	84	n
CC(OC(=O)Cn1[nH]c(=O)c2ccccc2c1=O)C(=O)Nc1ccc(F)cc1Cl (stereo not given)	n	n	n	n	n	n
CC(=O)Nc1ccc(S(=O)(=O)NCC(=O)OCC(=O)NCc2ccc3c(c2)OCO3)cc1	x	x	n	x	x	n
Cc1ccc(S(=O)(=O)NCC(=O)OCC(=O)NCc2ccc3c(c2)OCO3)cc1	n	n	68	n	n	n
CCOc1ccc(C(=O)N2CCN(c3cccc(Cl)c3)CC2)cc1	x	x	n	x	x	x

Screening results from PubChem BioAssay.
